## Apparent affinities of Ab-14 variants for a coronavirus HR2 peptide

Data: MIT Lincoln Laboratory AlphaSeq set, Engelhart et al. 2022, doi:10.1038/s41597-022-01779-4, as distributed in FLAb.

Target: peptide PDVDLGDISGINAS, taken from heptad repeat 2 (HR2) of SARS-CoV-2 spike.

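The starting antibody came from a phage panning campaign against this peptide. AAYL50 was designed without a model: most single CDR substitutions and a random sample of double and triple ones. The assay is AlphaSeq: two haploid yeast populations carry antibody and antigen on their surface. Pairs that bind mate more often; barcode pairs of the diploids are counted by sequencing. A regression on co-assayed BCL2-family reference pairs converts the normalised counts of each replicate to an apparent Kd. Each pool was mated in three replicate cultures.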

Parent: Ab-14, a human scFv built as VH, a 15-residue (Gly4Ser)3 linker, VL. Only the CDRs of the light chain vary.
VH: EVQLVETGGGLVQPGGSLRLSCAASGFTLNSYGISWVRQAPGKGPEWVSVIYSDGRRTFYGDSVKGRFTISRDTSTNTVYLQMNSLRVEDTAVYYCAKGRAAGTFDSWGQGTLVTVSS
VL: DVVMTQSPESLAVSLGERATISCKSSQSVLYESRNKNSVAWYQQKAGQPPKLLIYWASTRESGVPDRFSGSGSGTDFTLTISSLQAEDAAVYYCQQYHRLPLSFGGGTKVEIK

Variants are written as CDR1, CDR2 and CDR3 of the light chain (limits as in the source). Parent: KSSQSVLYESRNKNSVA, WASTRES, QQYHRLPLS. Each Kd is an estimate from the mating assay, the geometric mean of the replicates in which the pair was seen; lower is stronger. An entry "nd" has no value in the source: the pair was not observed among the diploids in any replicate. This suggests poor binding but is not conclusive.

CDR-L1,CDR-L2,CDR-L3,apparent Kd,seen in,signal with controls
KPSQSVLYESRNKNYVA,WHSTRES,QQYHRLPLS,nd,0 of 3,0 of 9
KSSQSVLYESRNFNSVA,WASTRES,YQYKRLPLS,nd,0 of 3,0 of 9
KSSFSVLYESRNFNSVA,WASTRES,QQYHRLPLI,150 nM,3 of 3,0 of 9
KSSQSQLYESRNKNSVA,WASTAES,QQYHRLTLS,nd,0 of 3,0 of 9
KSSQSILYESRNKNSVA,WMSTRES,QQYHRLPLS,81 nM,3 of 3,3 of 9
KSSQSVLKESRNKNSVA,WASTRES,QQYLRQPLS,7.5 µM,3 of 3,2 of 9
KSSCSVHYESINKNSVA,WASTRES,QQYHRLPLS,77 nM,3 of 3,0 of 9
KSSQSVLYESRNKNSVA,WASTRES,QQYHDLPKS,2.3 µM,3 of 3,0 of 9
KSHQSVLYESRNKNHVA,WASTRYS,QQYHRLPLS,71 nM,3 of 3,1 of 9
KSSQSVYYWSRNKNSVA,WASTRES,QQNHRLPLS,680 nM,3 of 3,4 of 9
KSSQCVLYESRNKNYVA,WASTRES,QQYHRLPLS,13 µM,2 of 3,2 of 9
KSSQSVLYESRNKMSVA,WASTRES,QNYHRLPLS,nd,0 of 3,0 of 9
KVSQSVLYESRNKNYVA,WWSTRES,QQYHRLPLS,2.6 µM,1 of 3,3 of 9
KSSQSVLYESRIKNGVA,WASTRES,QQYHMLPLS,3.0 µM,2 of 3,0 of 9
KSSQSVLYESRNKNSVA,WASTPMS,QQYDRLPLS,43 nM,3 of 3,0 of 9
KSKQSVLLESWNKNSVA,WASTRES,QQYHRLPLS,40 nM,3 of 3,6 of 9
KSSQSVLYESYIKNSVA,WASTRES,QQYHRLPGS,29 nM,3 of 3,5 of 9
KSSQSVLYENRNRNSVA,WQSTRES,QQYHRLPLS,37 nM,3 of 3,0 of 9
KSSQSVLYESRNKNSVQ,HASTRES,QQYHRLGLS,32 µM,2 of 3,5 of 9
KSAQSVLYESRNKNSVA,WASTRES,QQYHRLPLH,nd,0 of 3,0 of 9
KISQSVLMESRNKNSVA,WASTRHS,QQYHRLPLS,1.5 nM,3 of 3,3 of 9
KSSCSVLYESMNKNSVA,WASTRES,QQYIRLPLS,10 nM,3 of 3,0 of 9
KSSQSVLYESRNKNSVA,WASTRFS,QQYVRLQLS,24 nM,3 of 3,0 of 9
KSSQSVLYESRNKFSVV,RASTRES,QQYHRLPLS,6.7 µM,2 of 3,3 of 9
KSSQSVLYESRNKNSGA,WASTRED,QQYWRLPLS,42 µM,3 of 3,4 of 9
PSSQSVLYESRNKNSVA,WASTRES,QQYLRLILS,300 µM,1 of 3,2 of 9
KSSMSVLYESRNKLFVA,WASTRES,QQYHRLPLS,82 µM,1 of 3,2 of 9
KSSNPVLYESRNKNSVA,WASTRES,QQYHRLPLS,33 nM,3 of 3,0 of 9
KSSQSVLYNSRNKNSCA,WASTRES,QQYHRLPLS,230 µM,1 of 3,4 of 9
KSSSSVLYESRNKNSVA,QASTRES,QQYHRLPLS,3.8 nM,3 of 3,2 of 9
LSSQSVLYESRNKNSVA,WQSTRES,QQYHQLPLS,10 µM,2 of 3,3 of 9
KSSQSVLYESRNKNSVA,WAATREG,QQYHRLPLE,nd,0 of 3,3 of 9
KSSQSVLYESRTKNSVA,WASVREG,QQYHRLPLS,25 nM,3 of 3,5 of 9
KSSISVLYASRNKNSVA,WASTRES,QQYHRLPLK,360 nM,1 of 3,0 of 9
KSSQSVLYTSRNKNSVT,WTSTRES,QQYHRLPLS,240 nM,3 of 3,2 of 9
KSSQSVLYESRNKCSVA,WASTRES,QQYHRLPGC,5.9 µM,3 of 3,6 of 9
KSSQSVLYEIRNKNSVA,WAMTRES,HQYHRLPLS,38 µM,1 of 3,1 of 9
KSSQSVLYESRNDISVA,WASTRES,AQYHRLPLS,nd,0 of 3,0 of 9
KSSQSVIYESRNKNSVA,AASTRES,QQYYRLPLS,1.1 nM,3 of 3,4 of 9
KSSQSVNYESRNKNSVA,WASTRES,QQYTRLPLE,4.0 nM,3 of 3,2 of 9
KSSQSVLYENRNKNSVA,WASTRES,LQYCRLPLS,5.3 µM,1 of 3,1 of 9
KSSQLVLYESRNKNSVA,WALFRES,QQYHRLPLS,nd,0 of 3,1 of 9
DSSQSVLYESRNKASVA,WASTRES,QQYHFLPLS,3.9 µM,3 of 3,1 of 9
KSSQPVLYESRNKNSVA,WAATRES,QQYHRLPLH,260 nM,2 of 3,0 of 9
RSSQSVLDESRNKNCVA,WASTRES,QQYHRLPLS,2.6 µM,2 of 3,3 of 9
KSSYSVLLESRNKNSVA,WASTRGS,QQYHRLPLS,nd,0 of 3,0 of 9
KLSQSVKYEFRNKNSVA,WASTRES,QQYHRLPLS,3.2 nM,3 of 3,2 of 9
KSSQQVLYESLNKNSVA,WASTRGS,QQYHRLPLS,210 nM,3 of 3,4 of 9
MSSQSVLYESRNKNSVA,WASTRES,QQYPRLCLS,1.8 µM,1 of 3,3 of 9
KSSQSVCYESRNKNSCA,WASTRES,QQYHRLPLN,360 nM,1 of 3,2 of 9
KSSQCVLYESRNKNSVA,WASTRET,QQYHRLPVS,130 nM,3 of 3,3 of 9
KSSQSVLYESTNKNSVA,WASTYEC,QQYHRLPLS,720 µM,1 of 3,1 of 9
KSTQSVLYEKRNKNSVS,WASTRES,QQYHRLPLS,nd,0 of 3,1 of 9
KSSGSVLYESRHKNPVA,WASTRES,QQYHRLPLS,76 nM,3 of 3,1 of 9
KWSQSVLYESRNKNDVA,WASTRES,QQYHRDPLS,2.0 µM,1 of 3,0 of 9
KSSQSVLYISRNKNSVA,WASTRQS,QQNHRLPLS,3.1 µM,1 of 3,0 of 9
KSSNSVLGESRNKNSVA,WASTRES,QQYHRLPLS,7.8 µM,2 of 3,0 of 9
PSSQSVLYESRNKNSVA,WASTRMS,QQYHQLPLS,47 nM,3 of 3,1 of 9
KSSQSVLYESRNWNSVA,WASTRES,LQYHWLPLS,23 µM,3 of 3,2 of 9
KSSQSVLYESRNKDSVA,WESTRES,QNYHRLPLS,nd,0 of 3,0 of 9
KSFQSVLYESRNKNSVA,WASWRES,QPYHRLPLS,nd,0 of 3,1 of 9
KSSQSVLYESRNKNSVA,WLSTRES,QQYHRTPLP,19 µM,2 of 3,3 of 9
KSSQSVLYESRNWNSVA,WASTRES,QQYIRLPLD,6.0 nM,3 of 3,2 of 9
KSSQSVLLESRNKNKVA,WASTCES,QQYHRLPLS,nd,0 of 3,1 of 9
KPSQSVLYESQNKNSVH,WASTRES,QQYHRLPLS,8.7 µM,1 of 3,3 of 9
KESQSVLYEQRNKNSVA,WASTRES,GQYHRLPLS,22 µM,1 of 3,1 of 9
KSSQSVLYESRNKNSVA,WASTRES,QQTHKLPGS,nd,0 of 3,0 of 9
KSSQSVLYESRNKNSVA,LASRRET,QQYHRLPLS,180 nM,3 of 3,0 of 9
KSSQSVLYESRNKYSVA,WASTDHS,QQYHRLPLS,nd,0 of 3,1 of 9
KSSQSVLYESRNKNSVA,WASTRES,FQYHTLPLS,15 nM,3 of 3,2 of 9
KSSQSVLYESRNKNSVA,WACTRES,MQFHRLPLS,1.7 µM,3 of 3,2 of 9
KSSQSVLTRSRNKNSVA,WASTRES,QQYHRTPLS,nd,0 of 3,3 of 9
KSSYSVLYESRNSNSVA,WASTLES,QQYHRLPLS,40 nM,3 of 3,2 of 9

Picked from the list: the 5 lowest averages where every replicate gave a value.

CDR-L1,CDR-L2,CDR-L3,apparent Kd,seen in,signal with controls
KSSQSVIYESRNKNSVA,AASTRES,QQYYRLPLS,1.1 nM,3 of 3,4 of 9
KISQSVLMESRNKNSVA,WASTRHS,QQYHRLPLS,1.5 nM,3 of 3,3 of 9
KLSQSVKYEFRNKNSVA,WASTRES,QQYHRLPLS,3.2 nM,3 of 3,2 of 9
KSSSSVLYESRNKNSVA,QASTRES,QQYHRLPLS,3.8 nM,3 of 3,2 of 9
KSSQSVNYESRNKNSVA,WASTRES,QQYTRLPLE,4.0 nM,3 of 3,2 of 9

As a blank, each scFv also met three strains without target: over library AAYL50, 18% of these pairings were detected, typically at 15 µM and seldom below 970 nM. For each scFv, signals with the empty controls are counted beside the result. In this assay the parent's reference entry averaged 4.4 nM; its copy inside this library read 48 nM.